Broadly, the pEC50 is the EC50 on a negative log10 scale, so that one unit is a factor of ten.

Chains of the proteins cited; added tags and fusions are not shown. Lines headed by an entry give the natural chain unless they say otherwise; changes in a name come on top.
UniProt Q13131: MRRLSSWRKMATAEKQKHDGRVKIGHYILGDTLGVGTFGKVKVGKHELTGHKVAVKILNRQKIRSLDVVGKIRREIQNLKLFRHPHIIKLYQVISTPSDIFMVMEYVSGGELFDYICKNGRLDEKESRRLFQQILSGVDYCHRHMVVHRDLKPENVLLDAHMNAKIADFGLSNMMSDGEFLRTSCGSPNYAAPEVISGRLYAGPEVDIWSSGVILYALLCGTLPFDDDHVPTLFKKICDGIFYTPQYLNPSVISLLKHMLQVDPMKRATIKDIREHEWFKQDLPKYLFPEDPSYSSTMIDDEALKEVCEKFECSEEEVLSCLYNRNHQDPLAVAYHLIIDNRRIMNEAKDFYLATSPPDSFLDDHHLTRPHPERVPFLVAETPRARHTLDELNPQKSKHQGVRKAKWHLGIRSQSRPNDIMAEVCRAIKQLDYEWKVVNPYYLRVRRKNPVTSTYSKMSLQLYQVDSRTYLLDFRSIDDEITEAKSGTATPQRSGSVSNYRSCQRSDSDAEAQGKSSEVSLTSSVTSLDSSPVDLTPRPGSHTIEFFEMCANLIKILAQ
UniProt Q9Y478: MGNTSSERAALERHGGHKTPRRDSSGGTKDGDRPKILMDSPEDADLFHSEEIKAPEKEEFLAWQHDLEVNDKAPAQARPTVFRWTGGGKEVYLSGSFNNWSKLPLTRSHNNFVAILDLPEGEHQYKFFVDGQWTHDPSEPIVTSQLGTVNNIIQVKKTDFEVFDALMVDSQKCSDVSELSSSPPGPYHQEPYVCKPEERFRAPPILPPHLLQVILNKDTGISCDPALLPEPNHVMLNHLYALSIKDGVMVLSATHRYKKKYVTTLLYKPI

pEC50: −log10 of the molar value.

This test addresses Recombinant AMPK α1/β1/γ1 complex (Homo sapiens (Human), UniProt Q13131+Q9Y478). As to the kind of experiment: In vitro pAMPK1 kinase activation assay (ADP-Glo, SAMS peptide). The class given is biochemical. The conditions noted are these: AMPK α1/β1/γ1 pre-activated with CAMKK2; 12-point curve; 15 min compound incubation.

Consider `O=C(NCCNc1cccc2c(S(=O)(=O)O)cccc12)c1ccc(-c2ccc(-c3nc4nc(O[C@@H]5CO[C@H]6[C@@H]5OC[C@H]6O)[nH]c4cc3Cl)cc2)cc1` [Compound 10], for which the pEC50 was 9.40.

The values above are taken from US11407768B2, “AMPK activators” (Kallyope, Inc., priority 2020, dated 2022).
